# Binding of CDR-mutated scFvs to a peptide of the spike HR2 region

Antigen: PDVDLGDISGINAS, a 14-residue peptide of the SARS-CoV-2 spike HR2 region.

Parent: Ab-14, a human scFv built as VH, three GGGGS repeats, VL. Only the CDRs of the light chain vary.
VH: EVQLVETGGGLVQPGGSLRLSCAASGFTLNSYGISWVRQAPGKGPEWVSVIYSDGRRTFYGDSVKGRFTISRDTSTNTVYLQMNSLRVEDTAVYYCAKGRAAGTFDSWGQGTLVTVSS
VL: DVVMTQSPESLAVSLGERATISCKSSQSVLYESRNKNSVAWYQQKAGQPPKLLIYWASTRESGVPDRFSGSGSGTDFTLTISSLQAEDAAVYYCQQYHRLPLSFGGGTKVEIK

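Phage display of a naive human antibody library on the peptide gave the parent. In library AAYL50, one, two or three CDR residues were substituted; doubles and triples were drawn at random. The scFvs were displayed on barcoded MATa yeast, the peptide on MATalpha yeast. Mating (16 h, 30 °C) was followed by selection of diploids and sequencing of their barcodes. Each replicate has its own calibration line, from reference interactions of the BCL2 family. There are three technical replicates.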

The parent's light chain CDRs are KSSQSVLYESRNKNSVA, WASTRES, QQYHRLPLS; each variant's own CDRs replace them letter for letter. The read-out is the apparent dissociation constant on a log10 scale (nM): the lower, the stronger. A mean of the replicates is given; it leaves out those without a signal. An entry "nd" has no value in the source: the pair was not observed among the diploids in that replicate. This suggests poor binding but is not conclusive. Three control strains display no target. For library AAYL50, 18% of the pairings with them gave a signal, with a median of 4.19 and one signal in twenty below 2.99, so weak values seen in few replicates may be background. For each scFv, signals with the empty controls are counted beside the result, with their mean in brackets.

CDR-L1 | CDR-L2 | CDR-L3 | log10 Kd, replicates | mean log10 Kd (nM) | empty controls
KSSQSVLYESRNKASVA | WASTRES | MQYLRLPLS | nd nd 4.59 | 4.59 | 1 of 9 (3.43)
KSSQSVLYESRNKNSVA | DVSTHES | QQYHRLPLS | 0.14 0.46 0.23 | 0.28 | 3 of 9 (4.67)
KSSQSVLYEQRNKNSVA | WAVTRES | QGYHRLPLS | 4.76 nd nd | 4.76 | 1 of 9 (3.63)
KSSQSILYESRNKNSVA | WESTRES | RQYHRLPLS | 1.81 1.65 2.73 | 2.06 | 1 of 9 (3.68)
KSSTSVLYESRNKNSVA | WASTRES | QQCHRLHLS | nd nd nd | nd | 0 of 9
KSSQSVLYPSRTKNSVA | WASTRES | QQYHRLPLS | 1.79 2.46 2.30 | 2.18 | 2 of 9 (3.59)
KSSQSVLYESRNKNSVN | WASTREY | QQIHRLPLS | nd nd 4.59 | 4.59 | 0 of 9
YSSQCVLYESRNKNSVA | WASTRTS | QQYHRLPLS | 3.41 nd nd | 3.41 | 0 of 9
KKSQCVLYESRNKNSVA | WASTRES | QQYHRLPLC | nd nd nd | nd | 1 of 9 (4.10)
KSSQSVLYESRNKNSVA | WASTRES | LQYIRLELS | nd nd nd | nd | 0 of 9
KSSQSVLYESRHKNSVA | WASTRES | NQYNRLPLS | 1.29 2.01 1.99 | 1.76 | 0 of 9
KVSQSVRVESRNKNSVA | WASTRES | QQYHRLPLS | 0.58 0.76 0.64 | 0.66 | 5 of 9 (4.31)
KDSPSVLYESRNKNSVA | WASTRES | QQYHRPPLS | nd nd nd | nd | 0 of 9
KSRQSVLYESRNKNSVA | WASTRES | SQYHRLMLS | nd nd nd | nd | 4 of 9 (4.21)
KSSQSVLYESRNKNSVA | WASTRES | QQWHWLPWS | 5.89 4.31 nd | 5.10 | 2 of 9 (3.66)
KSSQSVLYNSRNKNSVA | WASTRES | QQYHRLPSG | 5.38 nd nd | 5.38 | 2 of 9 (4.11)
KPSQSVLYESRNKNSVA | WASTREH | QQYHRLGLS | 2.97 nd 3.04 | 3.01 | 2 of 9 (3.70)
KSSQSVLYESRNKNSVA | WAMTTES | SQYHRLPLS | nd nd nd | nd | 0 of 9
GSSQSVLYYSRNKNSDA | WASTRES | QQYHRLPLS | 2.03 2.41 2.75 | 2.39 | 1 of 9 (3.91)
KSSQNVLYESFNKNSVA | WASRRES | QQYHRLPLS | 1.31 1.46 1.42 | 1.39 | 6 of 9 (4.20)
QSSQSVLYESRNCNWVA | WASTRES | QQYHRLPLS | nd nd nd | nd | 1 of 9 (2.47)
KSSQSVLYESRNKNSVA | WASTRES | QWWVRLPLS | 2.54 2.53 3.19 | 2.75 | 5 of 9 (4.69)
KCSQLVLLESRNKNSVA | WASTRES | QQYHRLPLS | 1.01 1.20 1.29 | 1.16 | 0 of 9
KSSQSVLYESRNKNSHA | WASTREH | QKYHRLPLS | 3.86 3.56 nd | 3.71 | 1 of 9 (3.10)
KSSQSVLYESRNINSVA | WASTRES | QQYHRLTLS | 3.54 4.86 nd | 4.20 | 0 of 9
KSSQSVLYETRNKESVA | WASTRES | QQYHRLPLS | 1.38 1.44 1.61 | 1.48 | 2 of 9 (3.96)
KSSQSVLYESRNVNSVA | HASTMES | QQYHRLPLS | 2.56 2.12 2.60 | 2.43 | 0 of 9
KSSQDVLYESRNKNSVA | WASTRES | GQYMRLPLS | 1.82 1.79 2.34 | 1.98 | 4 of 9 (4.26)
KSSQSVHYESPTKNSVA | WASTRES | QQYHRLPLS | 1.75 1.60 1.82 | 1.72 | 4 of 9 (4.14)
KSSQSELYESRNKNSYA | WASTRES | QQYTRLPLS | 4.31 3.44 3.77 | 3.84 | 2 of 9 (4.49)

Excerpt, the first 4 entries:

| CDR-L1 | CDR-L2 | CDR-L3 | log10 Kd, replicates | mean log10 Kd (nM) | empty controls |
|---|---|---|---|---|---|
| KSSQSVLYESRNKASVA | WASTRES | MQYLRLPLS | nd nd 4.59 | 4.59 | 1 of 9 (3.43) |
| KSSQSVLYESRNKNSVA | DVSTHES | QQYHRLPLS | 0.14 0.46 0.23 | 0.28 | 3 of 9 (4.67) |
| KSSQSVLYEQRNKNSVA | WAVTRES | QGYHRLPLS | 4.76 nd nd | 4.76 | 1 of 9 (3.63) |
| KSSQSILYESRNKNSVA | WESTRES | RQYHRLPLS | 1.81 1.65 2.73 | 2.06 | 1 of 9 (3.68) |

Values reported by Engelhart et al. 2022, doi:10.1038/s41597-022-01779-4 (FLAb copy).